Values quoted from earlier work in patent US6057161A (priority 1997, dated 2000).

CC(=O)Oc1ccc2c3c1O[C@H]1[C@@H](OC(C)=O)C=C[C@H]4[C@@H](C2)N(C)CC[C@@]341
time found in the urine after administration of heroin: up to 40 hours
